Each block holds one binder with its values, some of them ahead of it.
What was measured:
full-length human eIF4E [1] = target: T1, full-length human eIF4E (human, UniProt P06730 2-217); experiment: isothermal titration calorimetry; the sentence cites Table 3, which prints 36.3 ± 17.0
T1 construct: mature; Used here for the purified full-length protein (anisotropy, ITC, crystals) and for endogenous eIF4E of HEK293 cells in pull-downs; also called cellular eIF4E

Amino acid sequences for entries named in this document (tags omitted). Residues count along the entry.
UniProt P06730, 2-217: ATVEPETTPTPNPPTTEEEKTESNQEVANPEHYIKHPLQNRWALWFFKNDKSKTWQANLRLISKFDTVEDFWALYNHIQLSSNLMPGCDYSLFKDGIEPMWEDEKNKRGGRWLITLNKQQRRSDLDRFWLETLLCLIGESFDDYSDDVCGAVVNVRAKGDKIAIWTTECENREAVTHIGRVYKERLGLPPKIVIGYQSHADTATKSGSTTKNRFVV
UniProt P12004, whole entry: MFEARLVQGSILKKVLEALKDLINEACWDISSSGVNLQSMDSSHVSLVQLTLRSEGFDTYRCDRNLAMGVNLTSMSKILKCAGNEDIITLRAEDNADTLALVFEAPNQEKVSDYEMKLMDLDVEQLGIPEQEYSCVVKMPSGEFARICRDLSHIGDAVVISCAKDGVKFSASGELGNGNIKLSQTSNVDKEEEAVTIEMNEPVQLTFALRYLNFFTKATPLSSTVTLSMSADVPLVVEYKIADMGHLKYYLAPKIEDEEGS

[2] = target: T2, proliferating cell nuclear antigen (PCNA) (human, UniProt P12004 1-261); experiment: direct fluorescence anisotropy titration of PCNA against 50 nM labelled tracer
T2 construct: Used here for the purified protein (anisotropy) and for endogenous PCNA of HEK293 and A375 cells in anti-FLAG pull-downs

full-length human eIF4E [3] = target: T1, full-length human eIF4E; experiment: competitive fluorescence anisotropy, displacement of m7GTP^FAM from eIF4E (apparent Kd); m^7GTP^FAM tracer: competition at the cap-binding site
full-length human eIF4E [4] = target: T1, full-length human eIF4E; experiment: competitive fluorescence anisotropy, displacement of m7GTP^FAM from eIF4E (apparent Kd); m^7GTP^FAM competitive anisotropy, cap-binding site, non-reducing

B3: EE-09 (peptide)
peptide: ACEMGYFGNCG
modifications: disulphide between the two Cys; C-terminal amide; N-terminus printed NH2- (methods: all peptides N-acetylated)
Kd (full-length human eIF4E [3]): 4860 nM

B4: EE-02 (peptide)
peptide: ACEMGFFQDCG
modifications: disulphide C2-C10; C-terminal amide; N-terminus printed NH2- (methods: all peptides N-acetylated)
notes: also called constrained macrocyclic peptide EE-02
Kd (full-length human eIF4E [4]): 406 nM

More lines, now with the values ahead:

Kd (full-length human eIF4E [1]): 35.3 nM
B1: VH-DiF^CAP-01 (purified, His-tagged) (designed binder)
VH: MSEVQLVESGGGLVQPGGSLRLSSAISGFSISSTSIDWVRQAPGKGLEWVARISPSSGSTSYADSVKGRFTISADTSKNTVYLQMNSLRAEDTAVYYTGRPLPEMGFFTNIPAMVDYRGQGTLVTVSSGAA
notes: also called peptide aptamer 1 (eIF4E); not shown: C-terminal six-histidine tag from pET-22b(+)

Kd [2]: 150 nM
B2: PCNA tracer peptide Ac-SAVLQKKITDYFHPKK-K (5-carboxylysine)-NH2 (peptide)
peptide: SAVLQKKITDYFHPKKK
modifications: N-terminal acetyl; last Lys printed as K (5-carboxylysine), the labelled residue; C-terminal amide

From patent US20250346630A1 (AGENCY FOR SCIENCE TECHNOLOGY AND RESEARCH, published 2025)
